# Key:
# [1] = tested on: non-small cell lung cancer PDX LU0387; assay: Tumor growth of non-small cell lung cancer PDX in mice treated with Cetuximab or saline; format: in vivo, mouse
# Source text: The HuMice™ mouse model is also useful when engrafted with a human tumor cells, tissue or an infectious disease/organism. Using a previously established non-small cell lung cancer PDX model (HuPrime® mouse model, Crown Bioscience) for non-small cell lung cancer, LU2503 (Yang, M., et al., 2013 Int. J. Cancer, E74-E84, September 5. doi: 10.1002/ijc.27813. [Epub ahead of print], FIG. 3) and LU0387 (FIGS. 4A and 4B) were separately engrafted into the CD34^+ UCB reconstituted NOD/SCID mice.
# Further preliminary evaluations were also undertaken to evaluate the new PDX model (HuPrime™ 3.0 mouse model) by treating the new human immunocompetent PDX mice with antibody therapeutics. […] Further work to assess the role of the reconstituted immune system's function in concert with a biologic drug effect was also performed. Standard NOD/SCID mice, PDX for NSCLC were treated with either saline or Cetuximab. […]
# Patient tumor fragments of NSCLC or gastric tumor tissue derived from diseased seed mice were engrafted 2.5 weeks after the CD34+ cell inoculation in order to create patient derived xenograft (PDX) models. […] The treatments were started when mean tumor size reached approximately 100-150 mm^3 The transplanted animals were monitored by weekly bleed and FACS analysis for hCD45^+ cells in peripheral blood.
# GA 0055 tumor = assay: Anti-tumor activity against GA 0055 gastric tumor PDX in HuMice and NOD/SCID mice; format: in vivo, mouse; settings: for tumor growth: with vs without treatment
# Source text: In yet another example of the utility of the HuPrime™ 3.0 mouse model (PDX human immunocompetent NOD/SCID mouse with CD34^+ hSC+PDX gastric tumor), patient cells derived from a human patient diagnosed with over-expressing gastric cancer, GA 0055, were engrafted into HuPrime™ 3.0 mice.
# The HuPrime™ 3.0 mice engrafted with GA 0055 were divided into six groups, four mice each. Three groups were engrafted with UCB human stem cells and three groups were not. Preliminary data (not shown) indicated slightly slower tumor growth of GA 0055 in the UCB groups verses the three groups without UCB engraftment. The groups were then evaluated for treatment response to 6 mg/kg body weight of Herceptin or 5 mg/kg body weight of Cisplatin. FIG. 6A provides a hematoxylin and eosin (H&E) stained cross-section of GA 0055 tumor cross-sections (40×10) treated with Cisplatin indicates Cisplatin is effective against GA 00555 while FIG. 6B is an immunohistorchemical stained section of GA 0055 treated with HER2. […] This is yet another example of the role of human immunity in providing the ADCC mechanism to facilitate treatment with monoclonal antibody therapeutics.
# To further illustrate the ADCC mechanism and the response of GA 0055 to treatment HuMice™ mice (reconstituted human immunocompetent) were engrafted with GA 0055 and then treated with or without Herceptin. Likewise, NOD/SCID (immunodeficient) mice were similarly engrafted and treated with Herceptin.
# Patient tumor fragments of NSCLC or gastric tumor tissue derived from diseased seed mice were engrafted 2.5 weeks after the CD34+ cell inoculation in order to create patient derived xenograft (PDX) models. Solid tumor sample fragments from seed mice inoculated with selected primary human lung or gastric cancer tissues were harvested and used for inoculation into mice. […] The treatments were started when mean tumor size reached approximately 100-150 mm^3 The transplanted animals were monitored by weekly bleed and FACS analysis for hCD45^+ cells in peripheral blood. […]
substance,measurement,setting,value
Cetuximab,anti-tumor effect (tumor growth),"[1]; HuPrime 3.0 mice (HuMice mouse + PDX for NSCLC), human immunity present, vs Saline, FIG. 4A, initial data",slightly enhanced anti-tumor effect
same,efficacy (tumor growth),"[1]; standard NOD/SCID mice, PDX for NSCLC, no reconstituted human immune system, vs saline, FIG. 4B",virtually non-existent
Herceptin,"treatment response, stained GA 0055 tumor section","GA 0055 tumor; 6 mg/kg Herceptin, in the absence of human immunity, FIG. 6B",non-responsive
same,tumor growth,"GA 0055 tumor; HuMice mice (reconstituted human immunocompetent) engrafted with GA 0055, FIG. 7A, 7C",slowed tumor growth
same,tumor growth,"GA 0055 tumor; NOD/SCID (immunodeficient) mice engrafted with GA 0055, FIG. 7B, 7D",no impact

# Source: patent US20150283269A1, “RECONSTITUTED HUMAN IMMUNE SYSTEM IN A PATIENT DERIVED XENOGRAFT MOUSE MODEL” (Crown Bioscience Inc., priority 2014, published 2015)
